Measured values reported in PubChem BioAssay AID445 (National Center for Advancing Translational Sciences (NCATS), 2006).
The list shows a part of the results. Some of these compounds have results that are not shown, active ones among them. Records with an inconclusive call do not appear. Activity calls are given as the source filed them. Calls come from the whole dose curve; as a rule, active = well fitted curve in the direction sought with a large enough effect in the signal ratio (not every such curve was filed as active); inconclusive = small, poorly fitted or top-dose-only effect, or a change in a side signal; inactive = flat fitted curve, though single readings scatter; the % refers to the signal ratio.

assay: IkB Signaling; details: ABC-DLBCL IkBa-CBG/CBR dual luciferase ratio (green luciferase fused to IkBa over red control in OCI-Ly3 lymphoma cells), 4 h, scaled: untreated 0%, proteasome inhibitor 100%; at 57.1 µM (top of the series) unless noted;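 note: 0% = basal untreated cells and 100% = reference inhibitor full response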
Text: NIH Molecular Libraries Screening Centers Network [MLSCN]
NIH Chemical Genomics Center [NCGC]
Nuclear factor kappa-B (NF-kappa-B) plays an important role in normal B cell development and survival. Diffuse large B cell lymphoma (DLBCL) is the most commonly observed type of non-Hodgkin's lymphoma. Gene expression analysis has identified an activated B cell-like subtype of DLBCL (ABC-DLBCL) which expresses known NF-kappa-B target genes. […] However, targets upstream of IKK have been largely unexplored and so nodes upstream of IKK in the NF-kappa-B pathway remain untested due to the lack of chemical probes.
A cell-sensor assay for I-kappa-B-alpha stabilization was developed with NIH investigator Dr. R. Eric Davis in Dr. Louis M. Staudt's laboratory. The assay uses green (CBG68) and red (CBR) emitting beetle luciferases [Chroma-Glo(TM) developed by Promega Corp.] where the green luciferase is fused to I-kappa-B-alpha and the red luciferase is present in its native state. Both luciferase genes are stably present in the OCI-Ly3 human ABC DLBCL cell line, but their expression is under the control of tetracycline-inducible promoters. Following the addition of doxycycline to induce expression of the luciferases, the green luminescence in control cultures rises only slowly because the CBG fusion partner I-kappa-B-alpha is targeted by IKK activity for rapid degradation. In contrast, green luminescence rises rapidly in the presence of proteasome inhibitors or IKK inhibitors. The rise in red luminescence of CBR is not affected by proteasome or IKK inhibitors, and serves as normalization for cell number and nonspecific effects. Compounds were screened as a concentration-titration series that ranged from 57 uM to 0.7 nM.
NCGC Assay Protocol Summary:
Cells were seeded in 1536-well plates at 5000 cells/3ul in IMDM medium containing 0.5% FBS, w/o phenol red, L-glutamine, 25 mM HEPES, 3 mg/ml sodium bicarbonate. After centrifugation for 1 min. at 1000 rpm, 23 nl of compounds or DMSO were delivered to each well using a pin tool. Then 1ul 80ng/ml doxycycline was dispensed into white solid 1536-well plates and the plates were incubated at 37C/5% C02 in a cell incubator for 4 hrs. Then 4 ul Chroma-Glo luminescent substrate mix (Promega) was added to each well. The plate was incubated at R.T. for 10-15 min. The plates were measured on a ViewLux plate reader for green luminescence (540/20 nm filter) and red luminescence (618/8 nm filter). The green and red luminescent signals were corrected for red and green luminescence filter overlap using previously determined filter calibration constants (determined using the procedure outlined in the Promega Technical Manual). The %Activity was determined from the ratio of corrected green/red luminescent values. Green luminescent and ratio %Activity was determined by normalizing to the difference in signal between basal cells (0% Activity) and cells incubated with 10 uM of the proteasome inhibitor MG-132 (100% Activity). Red luminescent %Activity was normalized to the difference between red luminesence in basal cells (0%Activity) and zero luminescence (-100% Activity).
Concentration-response curves were fitted to the signals arising from the green luminescence (I-kappa-B-alpha-luciferase fusion; IkB-luc) and the red luminescence (unfused luciferase; luc) as well as the calculated ratio. The concentration-effect curves were then classified based on curve quality (r2), response magnitude and degree of measured activity. Compounds were then categorized based on their concentration-response curves for all three datasets (Ikb-luc, luc and ratio).
Keywords: IKK, I-kappa-B, IkB, IkBa, cytotoxicity, luminescence, MLSMR, MLSCN, NIH Roadmap, qHTS, NCGC

Row | SMILES | IkBa stabilization activation
1 | CCCCOc1ccccc1C(=O)NCC1(N(C)C)CCCCC1 | inactive: 0.842%
2 | CN(C)C1(CNC(=O)c2ccccc2[N+](=O)[O-])CCCCC1 | inactive: 1.18%
3 | CCOc1cccc(C(=O)NCC2(N(C)C)CCCCC2)c1 | inactive: 0.121%
4 | CN(C)C1(CNC(=O)c2ccccc2F)CCCCC1 | inactive: -1.26%
5 | CN(C)C1(CNC(=O)c2cccc(Cl)c2)CCCCC1 | inactive: -0.753%
6 | C=C(C)C#C[C@@](O)(C(=O)OC1CCN(C)CC1)c1ccccc1 | inactive: 0.685% [at 11.4 µM]
7 | COc1cccc(C(=O)NCC2(N3CCOCC3)CCCCC2)c1 | inactive: -0.567%
8 | CN1CCC[C@H](OC(=O)[C@](O)(c2ccccc2)C2CCCC2)C1 | inactive: 0.9% [at 11.4 µM]
9 | CN1CC[C@H](OC(=O)[C@](O)(c2ccccc2)C2CCCC2)C1 | inactive: 0.736% [at 11.4 µM]
10 | O=C(OC1CN2CCC1CC2)C(CO)(c1ccccc1)c1ccccc1 (stereo not given) | inactive: -0.119%
11 | CC(C)Oc1ccc(C(=O)NCC2(N(C)C)CCCCC2)cc1 | inactive: -0.503%
12 | CN(C)c1cccc(C(=O)NCC2(N(C)C)CCCCC2)c1 | inactive: 0.402%
13 | Cc1cccc(C(=O)NCC2(N(C)C)CCCCC2)c1 | inactive: -2.06%
14 | COc1cc(C(=O)NCC2(N(C)C)CCCCC2)cc(OC)c1OC | inactive: 0.966%
15 | COc1ccc(C(=O)NCC2(N(C)C)CCCCC2)cc1Cl | inactive: 0.999%
